Test results taken from patent publication US20160024487.

Legend:
[1] = molecular target: T1, Lys(Dnp)-ATNATARPRIVGG-Lys(Abz)
T1 chain: KATNATARPRIVGGK

[2] = molecular target: T2, Lys(Dnp)-ATNATAYPRIVGG-Lys(Abz)
T2 chain: KATNATAYPRIVGGK

[3] = molecular target: human α-thrombin (FIIa), P00734

B1: Human plasma purified Factor Xa (protein)
chain 1: ANSFLEEMKKGHLERECMEETCSYEEAREVFEDSDKTNEFWNKYKDGDQCETSPCQNQGKCKDGLGEYTCTCLEGFEGKNCELFTRKLCSLDNGDCDQFCHEEQNSVVCSCARGYTLADNGKACIPTGPYPCGKQTLER
chain 2: IVGGQECKDGECPWQALLINEENEGFCGGTILSEFYILTAAHCLYQAKRFKVRVGDRNTEQEEGGEAVHEVEVVIKHNRFTKETYDFDIAVLRLKTPITFRMNVAPACLPERDWAESTLMTQKTGIVSGFGRTHEKGRQSTRLKMLEVPYVDRNSCKLSSSFIITQNMFCAGYDTKQEDACQGDSGGPHVTRFKDTYFVTGIVSWGEGCARKGKYGIYTKVTAFLKWIDRSMKTRGLPKAKSHAPEVITSSPLK
With B1 the FXa kcat/KM [1] was 350 M⁻¹ s⁻¹ and the FXa kcat/KM [2] was 26 M⁻¹ s⁻¹.

B2: FX [191-194]>[MTPR]-HPC4 (protein)
chain: ANSFLEEMKKGHLERECMEETCSYEEAREVFEDSDKTNEFWNKYKDGDQCETSPCQNQGKCKDGLGEYTCTCLEGFEGKNCELFTRKLCSLDNGDCDQFCHEEQNSVVCSCARGYTLADNGKACIPTGPYPCGKQTLERRKRSVAQATSSSGEAPDSITWKPYDAADLDPTENPFDLLDFNQTQPERGDNMTPRIVGGQECKDGECPWQALLINEENEGFCGGTILSEFYILTAAHCLYQAKRFKVRVGDRNTEQEEGGEAVHEVEVVIKHNRFTKETYDFDIAVLRLKTPITFRMNVAPACLPERDWAESTLMTQKTGIVSGFGRTHEKGRQSTRLKMLEVPYVDRNSCKLSSSFIITQNMFCAGYDTKQEDACQGDSGGPHVTRFKDTYFVTGIVSWGEGCARKGKYGIYTKVTAFLKWIDRSMKTRGLPKAKSHAPEVITSSPLKDQVDPRLIDGK
For B2, the KM [3] was 1.13 µM, the kcat [3] was 0.0014 s⁻¹ and the kcat/KM [3] was 1400 M⁻¹ s⁻¹.

B3: FX [191-194]>[NATMTPR]-HPC4 (protein)
chain: ANSFLEEMKKGHLERECMEETCSYEEAREVFEDSDKTNEFWNKYKDGDQCETSPCQNQGKCKDGLGEYTCTCLEGFEGKNCELFTRKLCSLDNGDCDQFCHEEQNSVVCSCARGYTLADNGKACIPTGPYPCGKQTLERRKRSVAQATSSSGEAPDSITWKPYDAADLDPTENPFDLLDFNQTQPERGDNNATMTPRIVGGQECKDGECPWQALLINEENEGFCGGTILSEFYILTAAHCLYQAKRFKVRVGDRNTEQEEGGEAVHEVEVVIKHNRFTKETYDFDIAVLRLKTPITFRMNVAPACLPERDWAESTLMTQKTGIVSGFGRTHEKGRQSTRLKMLEVPYVDRNSCKLSSSFIITQNMFCAGYDTKQEDACQGDSGGPHVTRFKDTYFVTGIVSWGEGCARKGKYGIYTKVTAFLKWIDRSMKTRGLPKAKSHAPEVITSSPLKDQVDPRLIDGK
With B3 the kcat/KM [3] was “No Activity”.
